The numbers were not newly measured in patent US11236066B2, “Crystalline forms of niraparib tosylate” (Apotex Inc., priority 2019, dated 2022), which cites them from elsewhere.

For data set [1] the following is noted: CHMP Assessment Report description; cited from earlier work.
The conditions of data set [2]: CHMP Assessment Report description; cited from earlier work. The source holds these as a separate data set.

The structures appear in SMILES notation.

With `Cc1ccc(S(=O)(=O)O)cc1.NC(=O)c1cccc2cn(-c3ccc([C@@H]4CCCNC4)cc3)nc12` [Niraparib tosylate crystalline Form I, 2-{4-[(3S)-piperidin-3-yl]phenyl}-2H-indazole 7-carboxamide 4-methylbenzenesulfonate], the Aqueous solubility entry in data set [1] is listed as “low, pH-independent”. Also, the Permeability entry in data set [2] is recorded as “high”.
